Values of other authors in paper PMC10433104 (Journal of medicinal chemistry, 2023).

The chains behind the UniProt entries cited, without tags or fusion partners. Residues count along the entry.
UniProt Q08499, 1-748 isoform Q08499-11 S129D, species assumed: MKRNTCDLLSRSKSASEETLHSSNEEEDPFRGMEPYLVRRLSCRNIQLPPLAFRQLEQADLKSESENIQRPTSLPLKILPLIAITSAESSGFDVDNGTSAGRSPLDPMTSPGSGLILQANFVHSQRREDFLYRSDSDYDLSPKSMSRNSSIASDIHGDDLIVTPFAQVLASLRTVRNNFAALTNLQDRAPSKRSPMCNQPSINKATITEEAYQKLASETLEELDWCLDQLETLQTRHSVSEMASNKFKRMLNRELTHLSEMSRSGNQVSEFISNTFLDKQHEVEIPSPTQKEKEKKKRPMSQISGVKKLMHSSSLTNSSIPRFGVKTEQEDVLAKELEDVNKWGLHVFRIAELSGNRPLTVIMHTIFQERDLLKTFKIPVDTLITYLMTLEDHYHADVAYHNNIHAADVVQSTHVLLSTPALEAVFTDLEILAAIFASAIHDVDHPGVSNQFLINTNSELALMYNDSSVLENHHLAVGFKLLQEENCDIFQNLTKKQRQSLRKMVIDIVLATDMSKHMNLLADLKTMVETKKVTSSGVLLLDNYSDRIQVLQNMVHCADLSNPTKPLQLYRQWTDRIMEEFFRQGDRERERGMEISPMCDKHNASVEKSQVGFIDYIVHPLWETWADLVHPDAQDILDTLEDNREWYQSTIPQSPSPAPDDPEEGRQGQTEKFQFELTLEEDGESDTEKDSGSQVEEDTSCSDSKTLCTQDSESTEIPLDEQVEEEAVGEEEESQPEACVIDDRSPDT

Molecular target: PDE4D7-S129D (PDE4D*) (Homo sapiens, UniProt Q08499, S190D)
Details: read-out: PDE4D* IC50, assay result adopted from ref 22; cited from earlier work
For `COc1ccc(Cc2cn[nH]c2)nc1-c1cccc([N+](=O)[O-])c1` [Compound 1], the IC50 is listed as 3.5 nM.
In the case of `COc1ccc(Cc2ccncc2)nc1-c1cccc(Cl)c1` [Compound 28], the IC50 is listed as 5.1 nM.
In the case of `COc1ccc(Cc2ccncc2)nc1-c1cccc([N+](=O)[O-])c1` [Compound 27], the IC50 is given as 2.8 nM.
